ChEMBL document CHEMBL2169778, “Small molecule inhibitors of signal transducer and activator of transcription 3 (Stat3) protein” (J Med Chem, 2012)

Sequences of proteins named here, by UniProt entry; tags and fusion partners are left off.
UniProt P40763, whole entry: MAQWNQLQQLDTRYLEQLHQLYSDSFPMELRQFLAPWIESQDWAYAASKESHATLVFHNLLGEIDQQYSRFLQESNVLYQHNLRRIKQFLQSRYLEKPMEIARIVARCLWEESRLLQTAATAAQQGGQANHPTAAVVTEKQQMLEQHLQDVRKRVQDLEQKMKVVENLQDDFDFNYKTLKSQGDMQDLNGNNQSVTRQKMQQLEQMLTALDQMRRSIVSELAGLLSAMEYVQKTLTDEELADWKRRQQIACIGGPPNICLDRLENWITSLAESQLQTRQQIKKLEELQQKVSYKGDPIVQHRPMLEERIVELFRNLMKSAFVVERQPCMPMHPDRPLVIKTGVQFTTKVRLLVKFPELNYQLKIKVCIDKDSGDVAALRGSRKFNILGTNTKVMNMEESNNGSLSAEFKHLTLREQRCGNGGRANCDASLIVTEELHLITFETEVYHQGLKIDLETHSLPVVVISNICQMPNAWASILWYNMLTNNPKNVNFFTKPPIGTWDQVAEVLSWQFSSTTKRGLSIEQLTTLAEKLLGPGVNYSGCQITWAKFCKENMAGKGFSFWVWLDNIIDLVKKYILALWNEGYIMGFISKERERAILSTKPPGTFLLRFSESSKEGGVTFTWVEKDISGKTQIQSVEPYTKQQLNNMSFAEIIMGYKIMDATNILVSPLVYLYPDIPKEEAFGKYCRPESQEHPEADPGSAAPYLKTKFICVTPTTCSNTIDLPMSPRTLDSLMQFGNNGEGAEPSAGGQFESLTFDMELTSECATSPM

Tests used:
[1] = molecular target: T1, Signal transducer and activator of transcription 3 (Homo sapiens, UniProt P40763); assay: Inhibition of recombinant STAT3 assessed as inhibition of STAT3-phosphododecapeptide interaction by SPR analysis
[2] = molecular target: T1, Signal transducer and activator of transcription 3

Row | Compound | IC50 [1] | IC50 [2]
1 | CCN1C(=O)/C(=C/c2ccc(-c3ccc(C(=O)O)cc3)o2)SC1=S | 30 µM | –
2 | C[C@H]1COC2=C1C(=O)C(=O)c1c2ccc2c1CCCC2(C)C [CRYPTOTANSHINONE] | – | 4.6 µM
